From US12012375B2, “Prostaglandin F2 alpha derivatives for decreasing intraocular pressure” (GURUS BIOPHARM LIMITED LIABILITY COMPANY, priority 2018, dated 2024)

Test system: 3T3-L1 cells
Assay: Cytotoxicity, MTT assay of cell survival
Type: cell-based
Conditions: cultivated mice 3T3-L1 cells, 24 hours incubation
Experimental: 3T3-L1 cells were incubated at 95% humidity, in the 5% CO2 atmosphere, at 37° C. Cultivation was performed in DMEM medium comprising 7% FCS, 2 mM of glutamine, 100 U/ml of penicillin, 100 μg/ml of streptomycin and 0.25 μg/ml of amphotericin B. Cells were subcultured every 48-72 hours. For the purpose of suspending the cells were incubated in Versene's solution within 1 minute and in Trypsin-EDTA solution within 1 minute (0.25%).
Cells were inoculated by 30 thousand into wells of 96-well plate (monolayer) in 100 μl of medium for MTT-test. After 24 hours of cultivation 100 μl of test substances in the medium used for cell culture were added to the cells with replacement of culture medium with a new one. Cells were incubated with test substances for 24 hours. Cells, to which 100 μl of medium used for cell culture were added to, were used as […].
Assessment of cell survival in the culture using the MTT assay After the incubation, the medium was removed from each well, and then 100 μl of MTT solution were added to each well (0.5 mg/ml of MTT, 3.5 mg/ml of D-glucose in Hanks' solution). The plate was placed into CO2-incubator (Ependorf, Germany) for 1.5 h. […] Then, the solution optical density was determined at the wavelength of 576 nm and 620 nm using a plate reader (EFOS 9305, OAO MZ Sapphir).

Prostaglandin F2α Amide with γ-Aminobutyric Acid Nitroethanolamide [Compound 8]
EC50: 194 ± 4 µM
